Key:
Mu-type opioid receptor [1] = biological target: T1, Mu-type opioid receptor (Homo sapiens, UniProt P35372); experiment: Displacement of [3H]naloxone from human mu opioid receptor expressed in BHK cells
Nociceptin receptor = Nociceptin receptor (Homo sapiens, UniProt P41146); experiment: Displacement of [3H]NOP from human NOP receptor expressed in HEK293 cells
Mu-type opioid receptor [2] = biological target: T1, Mu-type opioid receptor; experiment: Inhibitory activity at human mu opioid receptor in BHK cells by GTPgammaS binding assay

| SMILES | IC50 (Mu-type opioid receptor [1]) | IC50 (Nociceptin receptor) | IC50 (Mu-type opioid receptor [2]) |
| --- | --- | --- | --- |
| O=C1NCN(c2ccccc2)C12CCN([C@@H]1CCOC[C@@]1(O)c1ccccc1)CC2 (racemic) | 2.5 µM | > 10 µM |  |
| O=C1NCN(c2ccccc2)C12CCN([C@@H]1CCCC[C@@]1(O)c1ccccc1)CC2 (racemic) |  | 15 µM | 2.7 µM |
| O=C1NCN(c2ccccc2)C12CCN([C@@H]1CCCC[C@@]1(O)c1ccc(Cl)c(Cl)c1)CC2 (racemic) | 3.7 µM | 10 µM |  |
| Cc1ccc([C@]2(O)CCCC[C@H]2N2CCC3(CC2)C(=O)NCN3c2ccccc2)cc1 (racemic) | 3 µM | > 10 µM |  |
| O=C1NCN(c2ccccc2)C12CCN([C@H]1CCCC[C@@]1(O)c1ccccc1)CC2 (racemic) |  | 0.13 µM | 1.6 µM |
| COc1ccc(N2CNC(=O)C23CCN([C@@H]2CCCC[C@@]2(O)c2ccc(Cl)cc2)CC3)cc1 (racemic) | 4.4 µM | > 10 µM |  |
| O=C1NCN(c2ccccc2)C12CCN([C@@H]1CCCC[C@@]1(O)c1cccnc1)CC2 (racemic) | 1.8 µM | 13.4 µM |  |
| O=C1NCN(c2ccccc2)C12CCN([C@@H]1CCCC[C@@]1(O)c1cccc(Cl)c1)CC2 (racemic) | 1.09 µM | 3.85 µM |  |
| O=C1NCN(c2ccc(Cl)cc2)C12CCN([C@@H]1CCCC[C@@]1(O)c1ccc(F)cc1)CC2 (racemic) | 2.2 µM | > 10 µM |  |
| O=C1NCN(c2ccccc2)C12CCN([C@@H]1COCC[C@@]1(O)c1ccccc1)CC2 (racemic) | 5.3 µM | > 10 µM |  |
| O=C1NCN(c2ccccc2)C12CCN([C@@H]1CCCC[C@@]1(O)c1ccccn1)CC2 (racemic) | 1.42 µM | 15 µM |  |
| COc1ccc([C@]2(O)CCCC[C@H]2N2CCC3(CC2)C(=O)NCN3c2ccccc2)cc1 (racemic) | 2.5 µM | 7 µM |  |
| O=C1NCN(c2ccc(F)cc2)C12CCN([C@@H]1CCCC[C@@]1(O)c1ccc(Cl)cc1)CC2 (racemic) | 2.4 µM | 10.4 µM |  |
| O=C1NCN(c2ccccc2)C12CCN([C@@H]1CCCC[C@@]1(O)c1ccncc1)CC2 (racemic) | 1 µM | > 10 µM |  |
| O=C1NCN(c2ccccc2)C12CCN([C@@H]1CCCC[C@@]1(O)c1ccc(Cl)cc1)CC2 (racemic) | 3.6 µM | 1 µM |  |
| COc1cccc([C@]2(O)CCCC[C@H]2N2CCC3(CC2)C(=O)NCN3c2ccccc2)c1 (racemic) | 2.17 µM | 5.8 µM |  |
| Cc1ccccc1[C@]1(O)CCCC[C@H]1N1CCC2(CC1)C(=O)NCN2c1ccccc1 (racemic) | 0.26 µM | 1 µM |  |
| O=C1NCN(c2ccc(F)cc2)C12CCN([C@@H]1CCCC[C@@]1(O)c1ccc(F)cc1)CC2 (racemic) | 4 µM | 10 µM |  |
| O=C1NCN(c2ccccc2)C12CCN([C@@H]1CCCC[C@@]1(O)c1ccc(F)cc1)CC2 (relative stereo) | 4 µM | 1 µM |  |

Source: ChEMBL document CHEMBL1147765, “Discovery of N-(2-hydroxy-2-aryl-cyclohexyl) substituted spiropiperidines as GlyT1 antagonists with improved pharmacological profile” (Bioorg Med Chem Lett, 2006)
